Assay: Acute transdermal penetration of 3H-estradiol and 3H-estradiol phosphate in the hairless rat
Format: in vivo, female albino hairless rats

C[C@]12CC[C@@H]3c4ccc(O)cc4CC[C@H]3[C@@H]1CC[C@@H]2OP(=O)(O)O [EP, estradiol 3:phosphate]
absorption of tritiated compound 24 hours after transdermal application (FIG. 3) (5 μg in carrier cream of Example 1): more readily absorbed in comparison to E
amount remaining in the skin 24 hours after application (analysis of individual skin layers): minimal E or EP remained in the skin
